Calls of active or inactive are those of the source.
Assays:
Type in all cases: functional, cell-based
Settings in all cases: dose 0.03-3 µM
MOLM-13 [1] = assay: Induction of apoptosis in BFL-1 overexpressing isogenic human MOLM-13 cells assessed as increase in cleaved PARP level at 0.03 to 3 uM in presence of doxycycline by Western blot analysis
MV4-11 [2] = assay: Induction of apoptosis in BFL-1 overexpressing isogenic human MV4-11 cells assessed as increase in cleaved PARP level at 0.03 to 3 uM in presence of doxycycline by Western blot analysis
MOLM-13 [3] = assay: Induction of apoptosis in BFL-1 overexpressing isogenic human MOLM-13 cells assessed as increase in cytochrome c release in mitochondria at 0.03 to 3 uM in presence of doxycycline by Western blot analysis
MV4-11 [4] = assay: Induction of apoptosis in BFL-1 overexpressing isogenic human MV4-11 cells assessed as increase in cytochrome c release in mitochondria at 0.03 to 3 uM in presence of doxycycline by Western blot analysis

Measured: Activity

CC1(C)CCC(CN2CCN(c3ccc(C(=O)NS(=O)(=O)c4ccc(NCC5CCOCC5)c([N+](=O)[O-])c4)c(Oc4cnc5[nH]ccc5c4)c3)CC2)=C(c2ccc(Cl)cc2)C1 [VENETOCLAX]
inactive: all assays above
